Test results reported in ChEMBL document CHEMBL5046270, “A Selective and Orally Bioavailable Quinoline-6-Carbonitrile-Based Inhibitor of CDK8/19 Mediator Kinase with Tumor-Enriched Pharmacokinetics” (J Med Chem, 2022).
pKd: −log10 of the molar value.

Protein sequences, listed by entry. Tags and fused reporters are not part of them. Lines headed by an entry give the natural chain unless they say otherwise; changes in a name come on top.
UniProt Q9BWU1: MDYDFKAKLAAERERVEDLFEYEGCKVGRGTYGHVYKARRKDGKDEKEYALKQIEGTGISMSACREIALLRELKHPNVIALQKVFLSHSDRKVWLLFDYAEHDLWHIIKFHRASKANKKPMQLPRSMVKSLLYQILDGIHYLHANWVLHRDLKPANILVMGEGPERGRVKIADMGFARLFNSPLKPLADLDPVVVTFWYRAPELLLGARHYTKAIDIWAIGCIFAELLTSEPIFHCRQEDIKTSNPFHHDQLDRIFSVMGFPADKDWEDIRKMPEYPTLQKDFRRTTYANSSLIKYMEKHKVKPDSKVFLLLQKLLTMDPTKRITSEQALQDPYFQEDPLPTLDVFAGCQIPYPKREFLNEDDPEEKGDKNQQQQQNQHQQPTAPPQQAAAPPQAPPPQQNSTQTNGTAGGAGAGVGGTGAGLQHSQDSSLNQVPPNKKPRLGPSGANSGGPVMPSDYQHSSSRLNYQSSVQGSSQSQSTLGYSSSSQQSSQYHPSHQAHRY

Molecular target: Cyclin-C/Cyclin-dependent kinase 19 (Homo sapiens, UniProt Q9BWU1)
Assay: Binding affinity to recombinant human CDK19/cyclinC assessed as dissociation constant by TR FRET based assay
Type: protein-complex assay

pKd: 8.53
Compound: CN1CCN(C(=O)c2ccc3cc(CCNc4ncnc5ccc(C#N)cc45)ccc3c2)CC1 [SENEXIN B]
